Measured values reported in patent publication US20210324074A1 (US Dept. of Health and Human Services, published 2021).
pKd: −log10 of the molar value.

Target: T1, CD22 ECD-Fc fusion protein (UniProt P20273 20-687, limits assumed)
T1 construct: extracellular domain; also called CD22-Fc; not shown: Fc part
Test: SPR, BIAcore X100; CD22 ECD-Fc amine-coupled to the chip, scFv as analyte (0.32-200 nM per paragraph 213), fitted model

pKd: 8.51
Substance: M971 G4S (scFv)
